Test results: patent US11723362B2, “Broad-spectrum synergistic antimicrobial compositions” (The United States of America, as represented by the …, priority 2019, dated 2023)

What was measured:
Assay in all cases: Minimum inhibitory concentration (MIC) in Mueller-Hinton broth, pH 7.4
[1] = test system: S. aureus; format: cell-based, Staphylococcus aureus
Description: (§1) This example illustrates the preparation of testing parameters for antimicrobial activity of components of the inventive composition and related compositions for comparison. […] Microbes were grown on Mueller-Hinton agar (MHA, Sigma-Aldrich, St. Louis, Mo.) for 7 days until heavy sporulation was present. Spores from two agar plates were captured in sterile phosphate-buffered saline (PBS) using a sterile swab. Spores were enumerated by serial dilution in Dey-Engley neutralizing broth (DEB; Sigma-Aldrich) and spread plating on MHA. A typical spore stock was determined to contain ˜2×10^7 spores/mL. Bacteria were grown in MH broth for 24 h at 37° C., enumerated by plating, and diluted to the desired concentration as indicated.
(§2) To assess the antimicrobial activity of hydroxamic acids and derivatives, the inhibitory properties of commercially available hydroxylamines and hydroxamic acids were compared to their alcohol and carboxylic acid analogues diluted in Mueller-Hinton broth at pH 7.4 (Table 1).

[2] = test system: P. aeruginosa; format: cell-based, Pseudomonas aeruginosa
Description: as §1, §2
Guanylhydrazones 7 and 8, which represent a class of broad-spectrum antimicrobials, alone and in combination with hydroxamic acids were evaluated.

[3] = test system: A. brasiliensis; format: cell-based, Aspergillus brasiliensis
Description: as §1, §2

[4] = test system: E. coli; format: cell-based, Escherichia coli
Description: as §1, §2

[5] = test system: C. albicans; format: cell-based, Candida albicans
Description: as §1, §2

## O=C(NO)c1ccccc1O [Salicylhydroxamic acid]
[1]
  MIC: 0.03 wt %
[2]
  MIC: 0.06 wt %
[3]
  MIC: 0.5 wt %
[4]
  MIC: 0.2 wt %
[5]
  MIC: 0.5 wt %
